## AlphaSeq binding of Ab-14 light chain variants to a spike HR2 peptide

Source: Li et al. 2023 (doi:10.1038/s41467-023-39022-2), MIT Lincoln Laboratory and A-Alpha Bio; data file from the FLAb repository.

Target: peptide PDVDLGDISGINAS, taken from heptad repeat 2 (HR2) of SARS-CoV-2 spike.

Each scFv is VH, three GGGGS repeats, VL, as in the parent Ab-14, and differs from it in the CDRs of the light chain only.
VH: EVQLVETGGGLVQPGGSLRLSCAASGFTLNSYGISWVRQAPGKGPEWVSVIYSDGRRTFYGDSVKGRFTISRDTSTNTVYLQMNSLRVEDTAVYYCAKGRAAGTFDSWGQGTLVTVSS
VL: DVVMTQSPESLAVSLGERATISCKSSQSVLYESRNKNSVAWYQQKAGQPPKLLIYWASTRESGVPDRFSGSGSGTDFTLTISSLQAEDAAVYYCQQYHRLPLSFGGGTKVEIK

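Phage display of a naive human antibody library on the peptide gave the parent. This is the validation round: designs drawn from the data on random variants, tested in the same kind of assay. Group labels follow the data file (Ctrl: baseline library sampled from a position-specific scoring matrix, with some repeated check sequences; Rand: our label for a block that the file lists under HC and that is probably the random mutants of the ten best first-round binders; En: ensemble of fine-tuned language models; GP: Gaussian process model; HC: hill climbing; Gen: genetic algorithm; a sequence that several methods proposed may carry one label only). In AlphaSeq, yeast of one mating type display the scFv and yeast of the other type display the target. Binding brings cells together so that they mate, and sequencing counts the barcode pairs among the diploids. A regression on co-assayed BCL2-family reference pairs converts the normalised counts of each replicate to an apparent Kd. Each pool was mated in six replicate cultures.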

Positions count from residue 1 of the parent VL; S25F puts F in place of S.
Variants here have at most six changes.
The read-out is the apparent dissociation constant on a log10 scale (nM): the lower, the stronger.
The mean shown is taken over the replicates in which the pair was detected.
Where no diploid with the target was found in any replicate, the entry reads "no signal": below detection, most likely a poor binder, though not proof of it.

| changes | group | mean log10 Kd (nM) | detected | empty controls |
|---|---|---|---|---|
| S25F R34Y W56N S62L | Ctrl | 0.48 | 6/6 | 2/18 |
| N35E S103T | Ctrl | 2.22 | 6/6 | 0/18 |
| S25L K36A S38N W56N T59Q | GP_Gen | -0.26 | 6/6 | 0/18 |
| S26L Q27W R34N W56H E61M S62D | GP_HC | 0.69 | 6/6 | 2/18 |
| S25F S28N S33T | Ctrl | 0.15 | 6/6 | 0/18 |
| Y31I K36I | Ctrl | 1.51 | 2/6 | 1/18 |
| E61I P101H | Ctrl | no signal | 0/6 | 0/18 |
| S26T E32H W56D Y97M P101T | Ctrl | 0.31 | 6/6 | 0/18 |
| Q27P L30I Y97T | Ctrl | no signal | 0/6 | 0/18 |
| Q27I V29Y R34H W56A T59M | GP_HC | 0.35 | 6/6 | 2/18 |
| Y31A R34S S58H S62R | Ctrl | 1.58 | 6/6 | 1/18 |
| Q96S S103I | Ctrl | 2.97 | 2/6 | 0/18 |
| S26D S28R H98G | Ctrl | no signal | 0/6 | 0/18 |
| W56S E61S P101K | Ctrl | 1.47 | 1/6 | 0/18 |
| S25Q N35D W56M | GP_HC | 2.00 | 6/6 | 0/18 |
| S25L L30P N35M W56N T59Q | GP_Gen | 0.32 | 6/6 | 1/18 |
| S25L S26D S28G W56G | GP_HC | -0.29 | 6/6 | 3/18 |
| S26P K36F W56H S62D | GP_HC | 0.49 | 6/6 | 1/18 |
| S28L Y31H K36Y W56E Q96W | Ctrl | 2.03 | 6/6 | 0/18 |
| N37K | Ctrl | 1.93 | 2/6 | 0/18 |
| S25L S26Q L30M W56N E61L | GP_Gen | -0.20 | 6/6 | 2/18 |
| S25L W56Y T59E | Ctrl | 0.60 | 6/6 | 0/18 |
| L30V R34Q K36N W56D | Ctrl | 0.50 | 6/6 | 0/18 |
| S25L Q27R S28E V29I H98S S103C | Ctrl | 0.39 | 6/6 | 2/18 |
| S25V V29D W56N T59Y | GP_Gen | 0.20 | 6/6 | 3/18 |
| Y31F E32Q W56N | GP_HC | 1.05 | 6/6 | 0/18 |
| S25L V29H K36S S38N W56N | GP_Gen | -0.36 | 6/6 | 0/18 |
| S25L V29E W56S E61M | GP_Gen | 0.26 | 6/6 | 5/18 |
| V29W Y31S S33E S58Y | Ctrl | 1.90 | 1/6 | 0/18 |
| S25V S26E S28G W56G T59V | GP_HC | -0.31 | 6/6 | 4/18 |
| S25L S28L V29W W56N S62D | GP_Gen | 0.01 | 6/6 | 5/18 |
| S25L S26P Q27W V29Q W56N | GP_Gen | -0.48 | 6/6 | 0/18 |
| S25F S33M N37Q W56A | Ctrl | 0.24 | 6/6 | 0/18 |
| K24H Q27P W56N | En_HC | 0.10 | 6/6 | 1/18 |
| S25L S26E S28L W56N | GP_Gen | -0.01 | 6/6 | 0/18 |
| S33V K36E S58Y T59I E61V | Ctrl | no signal | 0/6 | 0/18 |
| S25L S26Q W56S E61M | GP_Gen | -0.14 | 6/6 | 1/18 |
| S28G K36V W56D S58E | Ctrl | 0.28 | 6/6 | 1/18 |
| L30A Y31E W56E | Ctrl | 0.27 | 30/30 | 5/90 |
| Q27P V29E W56N | GP_HC | 0.87 | 6/6 | 1/18 |
| S25M K36M S62A | Ctrl | 0.54 | 6/6 | 3/18 |
| V29W K36F N37W S38N W56G | GP_HC | 0.81 | 6/6 | 0/18 |
| Y31I K36P Q95C | Ctrl | no signal | 0/6 | 0/18 |
| S25L V29E W56N E61M S62M | GP_Gen | 0.01 | 6/6 | 1/18 |
| S25F N35T S38K W56N | Rand | 0.97 | 6/6 | 1/18 |
| S25L V29Q W56N E61C S62D | GP_Gen | -0.32 | 6/6 | 1/18 |
| K24L Q27I V29Y V39P A40G W56E | Rand | no signal | 0/6 | 0/18 |
| S26L L30P W56H S62D R99Q | GP_HC | -0.09 | 6/6 | 0/18 |
| S25L Y31E S33R N37Y W56S | Ctrl | 0.85 | 6/6 | 1/18 |
| K24H Q27P V29W S38N W56N | GP_HC | -0.13 | 6/6 | 3/18 |
| S25V S33D W56E | GP_Gen | 0.32 | 6/6 | 0/18 |
| S25L V29Q W56N Q96S | GP_Gen | -0.33 | 6/6 | 3/18 |
| Q27K V29L Y97S | Ctrl | no signal | 0/6 | 0/18 |
| Q27I V29Y N35C W56E S62Q | GP_HC | 0.86 | 6/6 | 0/18 |
| Q27F V29Y R34M W56N A57G | GP_HC | -0.26 | 6/6 | 1/18 |
| S33M W56N | Ctrl | 1.08 | 6/6 | 1/18 |
| S25L S33W W56N | GP_Gen | -0.47 | 6/6 | 0/18 |
| Y31P W56G | Ctrl | 0.00 | 6/6 | 1/18 |
| V29Y L30P W56G | GP_HC | 0.58 | 6/6 | 0/18 |
| S25I S28K S33H N35T W56N | GP_HC | 0.85 | 6/6 | 3/18 |
| S25I N37G | Ctrl | 1.50 | 6/6 | 1/18 |

Repeated from above, the 4 best binders with a signal in all replicates:

| changes | group | mean log10 Kd (nM) | detected | empty controls |
|---|---|---|---|---|
| S25L S26P Q27W V29Q W56N | GP_Gen | -0.48 | 6/6 | 0/18 |
| S25L S33W W56N | GP_Gen | -0.47 | 6/6 | 0/18 |
| S25L V29H K36S S38N W56N | GP_Gen | -0.36 | 6/6 | 0/18 |
| S25L V29Q W56N Q96S | GP_Gen | -0.33 | 6/6 | 3/18 |

A sequence measured in both rounds can read differently, since the two assays cover different ranges.
Of ten entries with the parent sequence, four were seen in most replicates (averages 0.34 to 2.37), three in one and three in none, so single entries are noisy.
In the paper, a design with two or fewer of six values counts as a poor binder.
Some sequences occur more than once in the pool; their replicates are pooled.
Three control strains display no target. For all light chain designs, 4% of the pairings with them gave a signal, with a median of 2.64 and one signal in twenty below 1.59, so weak values seen in few replicates may be background. For each scFv, signals with the empty controls are counted beside the result.